Laboratory results as given in paper PMC5907308, “21st Brazilian Diabetes Society Congress” (Diabetology & Metabolic Syndrome, 2018).

System: Gram-positive
Test: Antibiogram of tissue fragment cultures of infected diabetic foot ulcers, Gram-positive
Conditions: 51 cultures of tissue fragment, WHONET 5.6, Graphic 2

CCC[C@@H]1C[C@@H](C(=O)N[C@@H]([C@H]2O[C@H](SC)[C@H](O)[C@@H](O)[C@H]2O)[C@H](C)Cl)N(C)C1 [Clindamycin]
%R (resistance), Gram-positive: 70%
